Results as given in patent publication US20230357134A1, “AGENTS FOR USE IN THE TREATMENT OF AMYLOIDOSIS” (UCL BUSINESS LTD, priority 2020, published 2023).

What was measured:
[1] = Rat oral pharmacokinetics; conditions: 5 mpk
Rat IV pharmacokinetics = conditions: 1 mpk
isolated wild type TTR = isolated wild type TTR (Homo sapiens, UniProt P02766); test: Displacement of 125I-T4 from isolated wild type TTR in buffer; conditions: concentration of ligand reducing binding of 125I-T4 by TTR by 50%, 125 nM TTR, pH 8.0, overnight 4° C., mean of at least 3 replicates; for IC50: read-out: D50 buffer
[2] = target: TTR in whole human plasma (Homo sapiens, UniProt P02766); test: Displacement of 125I-T4 from TTR in normal human plasma; type: binding; conditions: read-out: D50 plasma, wild type TTR, 30 min 37° C. with ligand, immunoprecipitation, mean of at least 3 replicates
[3] = target: T1, recombinant Val122Ile TTR (Homo sapiens, UniProt P02766, V142I); test: Mechano-enzymatic fibrillogenesis, TTR amyloid by ThT emission fluorescence; type: biochemical; conditions: equimolar ligand, 96 h pellets, normalized to 100 % without ligand, mean (SD)
(2H, 13C, 15N) TTR = (2H, 13C, 15N) TTR (Homo sapiens, UniProt P02766); test: 2D NMR [1H,15N] TROSY of TTR-ligand complexes; conditions: equimolar ligand, 90 μM TTR, PBS pH 7.4, 310K
[4] = target: native recombinant wild type TTR (Homo sapiens, UniProt P02766); test: Kinetics of ligand binding by TTR (stopped flow quenching of intrinsic fluorescence)
[5] = target: Recombinant human wild type TTR (Homo sapiens, UniProt P02766); test: Ligand binding strength by native mass spectrometry
[6] = target: T1, recombinant Val122Ile TTR; test: Mechano-enzymatic fibrillogenesis, TTR aggregation by turbidity at 400 nm; type: biochemical; conditions: equimolar ligand, Val122Ile TTR 9 μM, trypsin, 96 h; 100 % = protein without ligand; mean (SD)

O=C(O)c1ccc2nc(-c3cc(Cl)cc(Cl)c3)oc2c1
Rat Oral Cmax [1]: 20066 ng/mL | Rat IV PK t½ (Rat IV pharmacokinetics): 16.4 h

CCc1oc(-c2cc(Cl)c(OCCOCCCOc3c(Cl)cc(Nc4ccccc4C(=O)O)cc3Cl)c(Cl)c2)nc1C(=O)O
IC50 (isolated wild type TTR): 0.13 µM | IC50 [2]: 13.8 µM | % Aggregation (Fluorescence method) [3]: 7 (2) %

O=C(O)CCc1cc(Cl)c(OCCCOCCCOc2c(Cl)cc(Nc3ccccc3C(=O)O)cc2Cl)c(Cl)c1
IC50 (isolated wild type TTR): 0.074 µM | IC50 [2]: 1.7 µM | % Aggregation (Fluorescence method) [3]: 5.74 (3.50) % | binding mode by NMR chemical shift changes ((2H, 13C, 15N) TTR): occupancy of both binding sites | rate of quenching reaction relative to mds84 ([4]; T-304 versus mds84): approximately 15 fold | rate constant k of ligand-induced quenching reaction ([4]; TTR and ligand 1 μM each): 0.0123 s⁻¹ | burst phase amplitude ([4]; millisecond time scale, fluorescence quenching): 13% | displacement of ligand from preformed TTR complex by T4 ([5]; four-fold molar excess of T4, MS immediately and after 24 h): only a small amount of T-304 is displaced from TTR after 24 h | dissociation voltage ([5]; lowest cone voltage at which apo TTR is at least 10% of holo TTR, gas phase): 110 V | % Aggregation (Turbidity method) [6]: 8.64 (5.16) %

CCc1oc(-c2cc(Cl)c(OCCCOCCOc3c(Cl)cc(-c4nc(C(=O)O)c(CC)o4)cc3Cl)c(Cl)c2)nc1C(=O)O
D50 buffer (isolated wild type TTR): Weak binding | % Aggregation (Fluorescence method) [3]: 18 (6) %

O=C(O)CCc1cc(Cl)c(OCCCOCCOc2c(Cl)cc(Nc3ccccc3C(=O)O)cc2Cl)c(Cl)c1
IC50 (isolated wild type TTR): 0.1 µM | IC50 [2]: 1.14 µM | % Aggregation (Fluorescence method) [3]: 5.21 (3.55) % | Rat Oral Cmax [1]: 1630 ng/mL | Rat IV PK t½ (Rat IV pharmacokinetics): 23 h | % Aggregation (Turbidity method) [6]: 5.76 (2.79) %

O=C(O)c1ccc2nc(-c3cc(Cl)c(OCCOCCCOc4c(Cl)cc(Nc5ccccc5C(=O)O)cc4Cl)c(Cl)c3)oc2c1
IC50 (isolated wild type TTR): 0.18 µM | IC50 [2]: 26.2 µM | % Aggregation (Fluorescence method) [3]: 15 (5) %
